Experimental data published in US9901615B2, “Method for treatment of gastric ulcers” (priority 2015, dated 2018).

Experiments:
Type in all cases: cell-based, Helicobacter pylori
Settings in all cases: NE: No effect
H. pylori ATCC 43504 = test system: H. pylori ATCC 43504
Description: (§1) Antibacterial activities were evaluated by examining MIC; determined using the micro dilution assay in sterilized 96-well plates in a final volume of 200 μl as follows. Bacterial inocula of 0.1 OD were prepared and diluted 1000 fold in BHI broth, and 180 μl aliquots were added to each well. Working standards of antimicrobial peptides (Epi-1, TH2-3, SALF, GE-33, or Chrysophsin-1) were prepared (0.9-50 μg/mL) prior to the experiment; 20 μL of AMP solution were added to each well. PBS was used as a control. The plates were incubated overnight at 37° C. in a microaerophilic atmosphere. Growth under standard conditions was determined by optical density measurements at 600 nm.

H. pylori ATCC 43629 = test system: H. pylori ATCC 43629
Description: as §1

H. pylori ATCC 700392 = test system: H. pylori ATCC 700392
Description: as §1

[1] = test system: H. pylori clinical isolate CI-HP028
Description: as §1

Measured: MIC

CC[C@H](C)[C@H](NC(=O)[C@H](CCCCN)NC(=O)[C@@H]1CCCN1C(=O)[C@@H](NC(=O)[C@H](CC(C)C)NC(=O)[C@H](C)NC(=O)[C@H](Cc1ccccc1)NC(=O)[C@H](Cc1ccccc1)NC(=O)CN)[C@@H](C)CC)C(=O)N[C@H](C(=O)N[C@@H](CO)C(=O)N[C@@H](CO)C(=O)N1CCC[C@H]1C(=O)N[C@@H](CC(C)C)C(=O)N[C@@H](Cc1ccccc1)C(=O)N[C@@H](CCCCN)C(=O)N[C@H](C(=O)N[C@@H](CC(C)C)C(=O)N[C@@H](CC(C)C)C(=O)N[C@@H](CO)C(=O)N[C@@H](C)C(=O)N[C@H](C(=O)NCC(=O)N[C@@H](CO)C(=O)N[C@@H](C)C(=O)N[C@@H](CC(C)C)C(=O)N[C@@H](CO)C(=O)N[C@@H](CO)C(=O)N[C@@H](CO)C(=O)NCC(=O)NCC(=O)N[C@@H](CCC(N)=O)C(=O)N[C@@H](CCC(=O)O)C(=O)O)C(C)C)[C@@H](C)O)[C@@H](C)CC [Pardaxin]
>25 µg/mL: all assays above
